pIC50: −log10 of the molar value.
Target: Proto-oncogene tyrosine-protein kinase receptor Ret (Homo sapiens, UniProt P07949)
Experiment: Inhibition of RET (unknown origin) by HTRF assay

The chains behind the UniProt entries cited, without tags or fusion partners.
UniProt P07949, whole entry: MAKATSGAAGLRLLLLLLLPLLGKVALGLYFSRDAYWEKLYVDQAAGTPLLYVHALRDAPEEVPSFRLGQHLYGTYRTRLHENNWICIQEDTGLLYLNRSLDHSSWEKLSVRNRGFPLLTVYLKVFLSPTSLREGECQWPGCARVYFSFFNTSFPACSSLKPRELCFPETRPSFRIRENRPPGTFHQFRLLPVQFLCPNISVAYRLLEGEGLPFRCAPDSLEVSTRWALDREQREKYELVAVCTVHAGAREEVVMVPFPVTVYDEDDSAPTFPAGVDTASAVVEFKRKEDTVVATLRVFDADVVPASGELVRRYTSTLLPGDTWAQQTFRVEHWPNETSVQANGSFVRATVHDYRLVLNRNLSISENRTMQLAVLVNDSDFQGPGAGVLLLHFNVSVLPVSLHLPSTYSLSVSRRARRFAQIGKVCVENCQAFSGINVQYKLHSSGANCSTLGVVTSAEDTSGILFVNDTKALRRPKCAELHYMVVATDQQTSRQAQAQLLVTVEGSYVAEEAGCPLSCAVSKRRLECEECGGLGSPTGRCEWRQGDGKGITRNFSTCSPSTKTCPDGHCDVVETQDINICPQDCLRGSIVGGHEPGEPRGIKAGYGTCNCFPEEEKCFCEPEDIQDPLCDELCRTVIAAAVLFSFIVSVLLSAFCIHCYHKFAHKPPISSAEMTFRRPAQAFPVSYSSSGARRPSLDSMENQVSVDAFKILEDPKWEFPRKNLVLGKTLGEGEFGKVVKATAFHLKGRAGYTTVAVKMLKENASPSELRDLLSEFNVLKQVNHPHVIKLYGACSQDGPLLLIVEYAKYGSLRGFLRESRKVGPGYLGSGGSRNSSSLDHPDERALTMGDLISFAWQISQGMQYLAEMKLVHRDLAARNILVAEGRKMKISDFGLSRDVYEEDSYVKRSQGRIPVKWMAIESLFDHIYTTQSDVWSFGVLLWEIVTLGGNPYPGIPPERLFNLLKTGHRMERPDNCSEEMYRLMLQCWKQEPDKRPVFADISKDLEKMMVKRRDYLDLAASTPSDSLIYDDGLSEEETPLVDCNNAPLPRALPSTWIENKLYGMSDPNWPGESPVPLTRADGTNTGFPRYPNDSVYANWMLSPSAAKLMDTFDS

In the case of CNC(=O)c1cc(Oc2ccc(NC(=O)Nc3ccc(Cl)c(C(F)(F)F)c3)c(F)c2)ccn1 [REGORAFENIB], the pIC50 was 8.82.
